{"source": "PubChem BioAssay AID624304", "about": "(Sanford-Burnham Center for Chemical Genomics, 2012)", "note": "The list shows a part of the results, in another mix than the full data. Calls of active or inactive are those of the source.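 The calls were made as follows: active = interference check ratio from 0.5 to 1.5 plus GFP to RFP signal ratio inhibition reaching or exceeding a fixed threshold (cut at about 30% in these data, passing the limit was not always enough); inactive = the rest.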"}
{"assay": "gst-4 reporter inhibition in live C. elegans – whole organism, uHTS, GFP/RFP fluorescence ratio, strain VP596, SKN-1 inhibitor project, primary screen (AID 624304)", "conditions": "C. elegans VP596 Pgst-4::GFP/RFP ratio, acrylamide-induced, 24 h; at 21.8 µM; stronger effect = higher value"}
{"molecule": "CCOP(=O)(NC(=NC(C)c1ccccc1)NC(C)c1ccccc1)OCC", "note": "(stereo unspecified)", "inhibition": "inactive: -28.8%"}
